System: AMPK (Thr172 phosphorylation) in HCT-116 cells
Test: AMPK activation assay on HCT-116 cells (Thr172 phosphorylation, western blot)
Settings: 10 nM, 20 hours, Thr172 phosphorylation relative to DMSO control
Protocol: AMPK activation can be assessed by the levels of AMPK phosphorylation at Thr172. The APMK activating activities of compounds falling under general formula (I) were investigated by western blotting on different cancer cell lines. Access and cultivation of the respective cell lines are as described above. To this end, A-549, HEP-G2, and HCT-116 cells were seeded into 6-well culture plates (Cyto-One®, #CC7682-7506) in a total volume of 2 mL at a density to achieve 80% confluency by 48 hours and incubated over night at 37 °C and 5% CO2. Cells were treated at a confluency of around 50% with compounds at indicated final concentration by adding 2 μL per well of a 1000× compound DMSO stock-solution. Cells were incubated for 20 hours at 37 °C and 5% CO2. Then, cells were lysed in RIPA buffer (Pierce™ RIPA Buffer, FisherScientific, #89900) supplemented with 1× cOmplete™ Mini Protease Inhibitor Cocktail (Roche, #11836153001) and 1 mM Sodium Orthovanadate (Na3VO3, FisherScientific, #J60191) and lysates were subjected to standard western blotting procedure. Protein concentration of the samples was determined by BCA assay and samples were normalized to achieve equal protein concentration. 4× Laemmli Sample Buffer (Bio-Rad, #1610747) was supplemented with 200 μM DTT (Sigma Aldrich-Merck, #D9779) and added to the samples to achieve a final concentration of 1× Laemmli/50 μM DTT by diluting lysate samples with supplemented Laemmli buffer 1:4. Samples were then incubated at 95 °C for 5 min in a Thermomixer (Eppendorf). SDS-PAGE was performed in 1× Tris/Glycine/SDS buffer (TGS, Bio-Rad, #1610772) using 4-15% gradient polyacrylamide gels (4-15% Mini-PROTEAN® TGX Stain-Free™ Gel, Bio-Rad, #456-8084). Proteins were transferred onto 0.2 μm PVDF membranes using the semi-dry Trans-Blot® Turbo™ transfer system (Trans-Blot® Turbo™, Bio-Rad, #170-4150) with prepacked Trans-Blot® Turbo™ transfer packs (Bio-Rad, #170-4156). […] Signals were developed with chemiluminescence substrate (SuperSignal™ West Pico PLUS, Fisher Scientific, #34577) and detected with the ChemiDoc™ MP imaging system (ChemiDoc™ MP, Bio-Rad, #12003154). Chemiluminescence signals of phosphorylation, total protein and loading control were quantified by densitometry using the image analysis software Image Lab™ (version 6.0.1, Bio-Rad). […]
For each condition, the ratio of phosphorylation to corresponding total protein was calculated from the signal intensities. […]
In the following embodiments, a compound is considered as an AMPK activator if the fold-change value of phosphorylation is 1.5 or higher, preferably 2.0 or higher, and more preferably 2.5 or higher as determined with the method described above.

Structure (SMILES)	Fold-change AMPK activation
O=C(c1ccc(Oc2ccc(C3CCC4(CC3)OCCO4)cc2CO)cc1)N1CCN(Cc2ccc(O)cc2)CC1	≥2.5
O=C(c1ccc(Oc2ccc(C3CCC4(CC3)OCCO4)cc2CO)cc1)N1CCN(Cc2ccc3oc(=O)ccc3c2)CC1	≥2.5
O=C(c1ccc(Oc2ccc(C3CCC4(CC3)OCCO4)cc2CO)cc1)N1CCN(Cc2ccc([N+](=O)[O-])cc2)CC1	≥1.5
COC1CCC(c2ccc(Oc3ccc(C(=O)N4CCN(Cc5ccc(C(F)(F)F)cc5)CC4)cc3)c(CO)c2)CC1 (stereo not shown)	≥2.5

Reference: US20260384421A1, “NOVEL COMPOUNDS THAT CAN BE USED AS THERAPEUTIC AGENTS” (published 2026)
